Values of other authors as cited in US11819781B2, “Device for solid phase extraction and method for use thereof” (Waters Technologies Corporation, priority 2014, dated 2023).

Settings: analyte characteristics; octanol:water

In the case of `CCOc1ccc(NC(C)=O)cc1` [Phenacetin], the “Log P” value is listed as 1.6.
